Data taken from US20070202515A1, “Promac signature application” (PATHOLOGICA, LLC., priority 2005, published 2007).

Test system: G1P3, GPR43, IFIT2, ORM1, TNFSF10
Assay: LC5-CI quantitative RT-PCR classification index on PBMCs
Parameters: species or system human
Settings: in vivo
Procedure: The 361 probe sets encompassed 280 known genes or transcripts associated with various functions including the α/β interferon response (gene symbol ═IFIT2, IFI27), signal transduction (IRAK3, TNFAIP6) and the immune response (CD80, FCGR2A). […] Thus, the changes observed in all three populations are not primarily a response to in vitro incubation. […] Aliquots of the RNA preparations were then RT-PCR amplified using quantitative real time methods employing a Light-Cycler^36. The signals obtained were normalized against the signal obtained with primers for β-actin according to the formula Ctactin−Ctgene=NSig where Ct=the threshold cycle for the indicated gene and NSig=the normalized signal.
The existence of significant changes in the gene expression of PBMCs of ALS patients relative to controls raised the possibility that these changes could be used to assist in the diagnosis of ALS. […] ALS and control patients were divided into training and test sets and the actin normalized signal for each sample with each primer set was determined as described above. Then the voting weights (modified Rs) were calculated using the test samples according to the formula Mod R=(Mean ALS−Mean CON)/(StDev ALS+StDev CON) calculated using 13 ALS samples & 11 controls.
Next the inflection point or the mid point between the ALS and control samples is calculated according to MID=(MeanALS+MeanCON)/2 […]

## Nc1nc2ccc(OC(F)(F)F)cc2s1 [Riluzole, reference compound]
  mean LC5-CI scores, patients taking vs not taking the drug: not significantly different
